Patent EP0182317A2, “Antineoplastic agent” (priority 1984, dated 1986)

Assay: 50 % lethal dose from toxic deaths in the Ehrlich carcinoma experiment
Assay type: in vivo, male ICR mouse
Details: mice bearing Ehrlich carcinoma, in the abdomen once a day for 7 days; 43200 min
Description: About 10^6/0.2 ml of Ehrlich carcinoma cells were placed in an abdomen of each male ICR mouse of 5 weeks old. On the next day the administration of the test sample in the abdomen was started. The test sample was given once a day for 7 days. For an untreated group, a physiological saline solution was given in the same manner as above. […] The T/C percent (T/C x 100) was determined from the average survival periods (days) of the treated group and control group. Further, 50 % lethal dose (LD50) was determined from the number of the mice which died of toxicity of the test samples administered.

With “selenium oxychloride·isoquinoline complex [Compound 6]” the LD50 was 8 - 16 mg/kg/day x7.
